# Data reported in PubChem BioAssay AID1948 (National Center for Advancing Translational Sciences (NCATS), 2009).
# Several values for one entry are separate records, joined by “and”; a condition that tells them apart may be missing. Equal values may be shown once. The list shows a part of the results, in another mix than the full data. Activity calls are given as the source filed them. Calls come from the whole dose curve; as a rule, active = well fitted activation curve with a large enough effect; inconclusive = small, poorly fitted or top-dose-only effect; inactive = no such curve, though single readings can be large or run the other way.
# Assay: qHTS Assay for Compounds that Induce Erasure of Genomic Imprints;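 note: 0% = negative control wells on the plate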
# Settings: mouse ES Peg3-LacZ reporter, beta-gal luminescence, 40 h; at 60.7 µM (top of the series)
row,Compound,"activity change, positive = activation"
1,O=[N+]([O-])C(Cl)(Cl)Cl,inactive: 4.17%
2,CN(CCCl)CCCl,inactive: -59% and inactive: -47.9%
